# Measurements as given in US20200181284A1, “EPIGENETIC INHIBITORS FOR SENSITIZING HEMATOLOGIC OR OTHER MALIGNANCIES TO GLUCOCORTICOID THERAPY” (UNIVERSITY OF SOUTHERN CALIFORNIA, priority 2017, published 2020).
# Biological target: T1, hG9a (Homo sapiens, UniProt Q96KQ7)
# T1 construct: transfected with a plasmid encoding full length HA-hG9a and treated with 2 μM UNC0646; expressed in transfected cells; host or cells: Cos-7
# T1 sequence (Q96KQ7 1-1210): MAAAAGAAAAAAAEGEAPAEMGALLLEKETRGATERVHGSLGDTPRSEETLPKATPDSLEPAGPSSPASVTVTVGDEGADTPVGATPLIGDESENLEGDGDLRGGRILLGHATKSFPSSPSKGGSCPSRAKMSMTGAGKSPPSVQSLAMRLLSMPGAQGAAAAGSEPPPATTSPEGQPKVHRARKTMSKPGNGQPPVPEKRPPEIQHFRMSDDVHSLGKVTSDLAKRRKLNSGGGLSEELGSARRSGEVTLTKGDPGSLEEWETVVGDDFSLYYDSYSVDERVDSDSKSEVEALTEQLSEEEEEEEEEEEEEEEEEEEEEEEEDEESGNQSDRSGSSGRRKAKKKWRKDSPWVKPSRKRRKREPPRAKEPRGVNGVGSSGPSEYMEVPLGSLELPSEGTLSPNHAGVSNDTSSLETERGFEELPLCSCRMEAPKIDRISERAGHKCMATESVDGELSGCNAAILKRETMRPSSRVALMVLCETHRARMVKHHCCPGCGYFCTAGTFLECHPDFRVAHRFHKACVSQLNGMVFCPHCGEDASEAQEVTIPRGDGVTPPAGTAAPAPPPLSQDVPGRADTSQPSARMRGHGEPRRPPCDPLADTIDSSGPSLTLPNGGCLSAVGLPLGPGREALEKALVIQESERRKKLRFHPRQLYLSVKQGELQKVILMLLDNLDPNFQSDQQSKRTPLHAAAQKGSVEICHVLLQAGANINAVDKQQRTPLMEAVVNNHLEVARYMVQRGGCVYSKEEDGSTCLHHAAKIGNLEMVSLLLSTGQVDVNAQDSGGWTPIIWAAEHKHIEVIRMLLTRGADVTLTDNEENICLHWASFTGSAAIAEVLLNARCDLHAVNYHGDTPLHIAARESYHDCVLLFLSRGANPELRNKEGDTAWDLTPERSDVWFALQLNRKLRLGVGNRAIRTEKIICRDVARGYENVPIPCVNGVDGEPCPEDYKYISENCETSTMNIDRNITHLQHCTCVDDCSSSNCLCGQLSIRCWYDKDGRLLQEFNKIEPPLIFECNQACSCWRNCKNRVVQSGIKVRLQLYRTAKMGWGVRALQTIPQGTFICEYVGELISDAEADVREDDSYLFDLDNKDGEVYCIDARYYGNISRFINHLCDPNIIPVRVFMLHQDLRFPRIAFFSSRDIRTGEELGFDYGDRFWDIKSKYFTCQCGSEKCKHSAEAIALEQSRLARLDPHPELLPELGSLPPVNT
# Assay: Methylation of HA-hG9a in Cos-7 cells (pan met-K immunoprecipitation/immunoblot)
# Type: cell-based, African green monkey
# Details: 2 μM inhibitor, 24 h
# Experimental: Cos-7 or A549 cells were seeded on 10-cm dishes the day before transfection. Cells were transiently transfected (where indicated) using Lipofectamine 2000 (Invitrogen) with 5 μg each of the indicated plasmids according to the manufacturer's protocol. […] Protein extracts were incubated with 1 μg of the indicated primary antibodies overnight at 4° C. with shaking. Protein A/G Plus Agarose (Santa Cruz sc-2003) beads were added and the mixture was incubated 2 hr at 4° C. The immunoprecipitates were separated on SDS-PAGE. […] In immunoprecipitation experiments 3% of the input of each sample was analyzed by immunoblot using the antibodies listed. […] For FIGS. 17B-1 and 17B-2, after protein methylation reactions in vitro methylated proteins were detected by immunoblot with pan methyllysine antibody (pan met-K). […]
smiles,measurement,value
COc1cc2c(NC3CCN(C(C)C)CC3)nc(C3CCCCC3)nc2cc1OCCCN1CCCC1 [UNC0638],pan-methyllysine antibody signal on wild type hG9a,strongly decreased
